Some of the results follow. Results with a measured potency or affinity are listed apart. Some of these compounds have results that are not shown, active ones among them. Active and inactive are the calls of the source. How the calls were made is not given here.

The source of these data is PubChem BioAssay AID2391 (Southern Research Specialized Biocontainment Screening …, 2010).

A short description of the assay: inhibition of RSV-induced cytopathic effect – HEp-2 cells, primary 10 µM value included (AID 2391). The note with it: at 10 µM, stronger effect = higher value. In general terms: Damage to the host cells serves as the signal in cytopathic effect assays.
For the compound `CC(C)N1C(=O)CC2(CCN(CCOC(=O)C(O)(c3ccccc3)c3ccccc3)CC2)C1=O`, the CPE inhibition was inactive: 0.12%.

Turning to `COc1cc(SC)ccc1C(=O)NCC1(N(C)C)CCCCC1`, the CPE inhibition was inactive: 0.51%.

For the compound `CCN(CC)CC(C)C(C)OC(=O)C(O)(c1ccccc1)c1ccccc1` (centres undefined), the CPE inhibition is inactive: -0.36%.

Turning to `Cc1ccc(C(=O)NCC2(N3CCCCC3)CCCCC2)cc1`, the CPE inhibition is inactive: 0.27%.

Turning to `O=C(NCC1(N2CCCCC2)CCCCC1)c1cc([N+](=O)[O-])ccc1Cl`, the CPE inhibition is inactive: -1.33%.

Turning to `CN1[C@@H]2CC[C@H]1CC(OC(=O)C(O)(c1ccccc1)c1ccccc1)C2` (some centres undefined), the CPE inhibition was inactive: -0.33%.

On to `O=C(NCC1(N2CCCCC2)CCCCC1)c1cc(F)c(F)cc1Cl`, for which the CPE inhibition is inactive: 1.08%.

`C=CCN1CCN(CCOC(=O)C(O)(c2ccccc2)c2ccccc2)CC1`: the CPE inhibition is inactive: -0.36%.

As to `O=C(NCC1(N2CCCCC2)CCCCC1)c1cccc(Br)c1`, the CPE inhibition was inactive: -0.02%.

`CCN1CCCC(OC(=O)C2(O)c3ccccc3C=Cc3ccccc32)C1` (centres undefined): the CPE inhibition was inactive: 0.47%.

Regarding `Cc1cc(C(=O)NCC2(N3CCCCC3)CCCCC2)ccc1[N+](=O)[O-]`, the CPE inhibition was inactive: 0.02%.

`COc1ccc(C(=O)NCC2(N(C)C)CCCCC2)cc1`: the CPE inhibition was inactive: 4.23%.

With `CN(C)c1ccc(C(=O)NCC2(N(C)C)CCCCC2)cc1`, the CPE inhibition is inactive: -3.11%.

`CN(C)C1CCCC1OC(=O)C(O)(c1ccccc1)c1ccccc1` (centres undefined): the CPE inhibition is inactive: 1.44%.

`Cc1ccccc1C(=O)NCC1(N2CCCCC2)CCCCC1`: the CPE inhibition was inactive: -0.16%.

In the case of `COc1ccc(Cl)cc1C(=O)NCC1(N(C)C)CCCCC1`, the CPE inhibition is inactive: 2.9%.

On to `COc1cccc(C(=O)NCC2(N3CCCCC3)CCCCC2)c1`, for which the CPE inhibition is inactive: 1.25%.

As for `O=C(NCC1(N2CCCCC2)CCCCC1)c1cccc(Cl)c1`, the CPE inhibition is inactive: 1.05%.

Take `CN(C)C1(CNC(=O)c2ccc(Br)cc2)CCCCC1`: the CPE inhibition was inactive: -0.42%.

With `COc1cc(C(=O)NCC2(N(C)C)CCCCC2)c([N+](=O)[O-])cc1OC`, the CPE inhibition is inactive: -0.3%.

As to `COc1ccc(Br)c(C(=O)NCC2(N3CCCCC3)CCCCC2)c1`, the CPE inhibition was inactive: -1.56%.

As to `CN(C)c1cccc(C(=O)NCC2(N(C)C)CCCCC2)c1`, the CPE inhibition was inactive: 0.96%.

Consider `CC(C)Oc1ccc(C(=O)NCC2(N(C)C)CCCCC2)cc1`, for which the CPE inhibition is inactive: 0%.

In the case of `O=C(OC1CN2CCC1CC2)C(CO)(c1ccccc1)c1ccccc1` (centres undefined), the CPE inhibition was inactive: -0.71%.
